Here are results for one compound from ChEMBL document CHEMBL4765391, “Design, synthesis, and Structure-Activity Relationships (SAR) of 3-vinylindazole derivatives as new selective tropomyosin receptor kinases (Trk) inhibitors” (Eur J Med Chem, 2020).

Amino acid sequences for entries named in this document (tags omitted).
UniProt Q16620, whole entry: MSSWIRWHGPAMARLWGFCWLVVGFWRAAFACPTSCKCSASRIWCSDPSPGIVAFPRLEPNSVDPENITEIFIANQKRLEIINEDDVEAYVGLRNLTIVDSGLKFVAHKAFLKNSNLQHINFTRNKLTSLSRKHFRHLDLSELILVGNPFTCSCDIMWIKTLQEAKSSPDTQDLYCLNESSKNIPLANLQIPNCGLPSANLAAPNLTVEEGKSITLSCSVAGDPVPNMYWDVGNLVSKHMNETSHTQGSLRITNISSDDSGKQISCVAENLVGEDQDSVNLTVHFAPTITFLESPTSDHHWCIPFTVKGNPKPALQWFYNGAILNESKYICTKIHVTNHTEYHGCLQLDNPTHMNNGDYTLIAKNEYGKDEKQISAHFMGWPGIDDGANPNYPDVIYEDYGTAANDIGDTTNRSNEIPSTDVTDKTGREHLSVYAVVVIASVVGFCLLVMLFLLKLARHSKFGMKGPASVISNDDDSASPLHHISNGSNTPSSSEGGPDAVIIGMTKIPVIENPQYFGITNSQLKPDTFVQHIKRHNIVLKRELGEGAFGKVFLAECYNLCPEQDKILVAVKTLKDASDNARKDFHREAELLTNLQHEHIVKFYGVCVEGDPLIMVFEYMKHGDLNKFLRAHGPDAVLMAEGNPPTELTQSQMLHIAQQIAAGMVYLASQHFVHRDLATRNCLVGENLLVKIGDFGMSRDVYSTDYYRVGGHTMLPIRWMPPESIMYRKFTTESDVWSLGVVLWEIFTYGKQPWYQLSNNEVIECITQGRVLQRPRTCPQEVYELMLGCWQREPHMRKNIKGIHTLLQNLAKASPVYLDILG

The structures appear in SMILES notation. pIC50, pKd: −log10 of the molar value.

Assay [1] deals with T1, BDNF/NT-3 growth factors receptor (Homo sapiens, UniProt Q16620). Nature of the assay: Inhibition of TrkB (unknown origin) using Tyr1 peptide as substrate in presence of ATP measured after 2 hrs by FRET-based Z-Lyte kinase assay.
Assay [2] concerns the target T1, BDNF/NT-3 growth factors receptor. Nature of the assay: Binding affinity to wild-type human partial length TRKB (Q547 to G838 residues) expressed in mammalian expression system by Kinomescan method relative to control.

In the case of `C[C@@H](Nc1ccc2[nH]nc(/C=C/c3ccccn3)c2c1)c1cc(F)cc(F)c1`, the pIC50 in assay [1] was 8.54. The compound further showed a pKd in assay [2] of 8.51.

For orientation: pIC50 means −log10 of the IC50, conventionally taken in molar units. By pKd is commonly meant the Kd on a negative log10 scale, so that one unit is a factor of ten. The low end stands for a large Kd, the high end for a small Kd.
